A selection: hits, their analogues and other compounds. The true share with any hit is near 2.1%.
MITF act: MITF TRPM1 promoter activation in melanoma cells | SK-MEL-5 TRPM1-promoter luciferase, 24 h; % of positive control, neutral wells = 0 | activation, % at 12.5 µM | 300,000 compounds, 0.75% hits | AID 588334;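 active = mean activation of at least 80% with every replicate also reaching 80%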
miR-122 sensor: inhibitors of miR-122 in Huh7 cells | activation (reporter increase), % at 12.5 µM | Huh7 miR-122 Renilla luciferase sensor, 48 h; neutral wells = 0, positive control = 100 | 340,000 compounds, 0.3% hits;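 active = mean replicate activation score at least 90 and every replicate individually at or above 90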;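 note: higher luciferase means less miR-122 activity so hits act as miR-122 inhibitors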
PGC1a acetyl inh: modulators of PGC1a acetylation; U2OS PGC1a acetylation, AlphaScreen anti-acetyl-lysine; with virally co-expressed GCN5 acetyltransferase; inhibition, % at 15.6 µM; 350,000 compounds, 0.17% hits;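 active = every replicate shows inhibition of at least 40%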
MITF TRPM1 inh: reduces MITF-dependent TRPM1 promoter luciferase signal; SK-MEL-5 TRPM1 promoter luciferase, 24 h; inhibition, % at 12.5 µM; 330,000 compounds, 0.83% hits;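 active = mean inhibition across replicates of 60% or more, whatever share of single replicates reaches that level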
Yeast UUG start-1: modulators of start codon recognition fidelity in yeast; S. cerevisiae UUG-firefly luciferase reporter, luminescence/redox ratio; AID 602363; 350,000 tested, 0.13% active; activity score, % at 18.7 µM;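 active = replicate mean at a twofold rise or more, about +100% in these data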;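 also: firefly luciferase made from a UUG start codon reports start codon fidelity; reporter light over untreated wells divided by growth signal over untreated wells; some hits fall short of that in this replicate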
Wnt act: activators of Wnt/beta-catenin signaling. Wnt/beta-catenin reporter cell assay, activator, plate reader. activation, % at 9.35 µM. 300,000 compounds, 1.2% hits. AID 743398; in the data active = activation above about 30%, passing the limit was not always enough
Yeast UUG start-2: alters UUG start codon use in yeast; shares compounds with Yeast UUG start-1; AID 652061; activation, % at 38 µM; S. cerevisiae UUG-start firefly luciferase, luminescence, 4 h; 100% means double the DMSO signal; 540 tested, under 10 active;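 active = signal increase whose fitted curve reaches an absolute level of 40 at a concentration under 10 µM; inactive = activity opposite to the expected increase, or the rest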
Numbers stand for hits; . = inactive; / = not tested or not shown.

SMILES | MITF act | miR-122 sensor | PGC1a acetyl inh | MITF TRPM1 inh | Yeast UUG start-1 | Wnt act | Yeast UUG start-2
CN(C)C(=O)c1ccc(-c2ccc([C@H]3[C@@H](C#N)N(C(=O)C4CCCC4)[C@H]3CO)cc2)cc1 | / | / | . | / | . | / | /
C[C@@H]1CN([C@@H](C)CO)S(=O)(=O)c2ccc(C#C[C@@H](C)O)cc2O[C@@H]1CN(C)C(=O)C1CCCCC1 | / | . | . | / | . | / | /
Cc1ccccc1S(=O)(=O)NCC[C@H]1CC[C@@H](NC(=O)C2CCCCC2)[C@@H](CO)O1 | / | / | . | / | . | / | /
COc1ccccc1S(=O)(=O)N[C@H]1CC[C@H](CCNC(=O)C2CCCC2)O[C@H]1CO | / | . | . | / | 224 | / | .
CC(C)c1cn(CC[C@@H]2CC[C@H](NC(=O)C3CCCCC3)[C@H](CO)O2)nn1 | / | / | . | / | 100 | / | .
Cc1ccccc1S(=O)(=O)NCC[C@H]1CC[C@H](NC(=O)C2CCCCC2)[C@H](CO)O1 | / | / | . | / | 211 | / | .
CC(C)c1cn(CC[C@@H]2CC[C@@H](NC(=O)C3CCCC3)[C@H](CO)O2)nn1 | / | . | . | / | . | / | /
O=C(CCN1CCCCC1)NCC[C@H]1CC[C@H](NC(=O)C2CCCC2)[C@H](CO)O1 | / | / | . | / | 167 | / | .
CCCNC(=O)N1CC2(CCN(CC3CCCCC3)CC2)c2c([nH]c3cc(OC)ccc23)[C@H]1CO | / | / | . | / | / | / | /
CCN(CC)c1ccc(C=Nc2ccc(C#N)cc2)c(O)c1 | / | . | . | . | 466 | . | .
COc1cc(S(=O)(=O)N2CCOCC2)ccc1F | . | . | / | . | 196 | / | .
COc1cc(S(=O)(=O)N2CCOCC2)ccc1N | . | / | . | . | / | . | /
CCN(CC)CCNC(=O)Cn1nc(Cc2ccccc2)c2ccccc2c1=O | . | . | . | . | . | / | /
CCN(CC)CCNC(=O)C(C)c1nn(CC)c(=O)c2ccccc12 (stereo unspecified) | . | / | / | . | / | . | .
CCN(CC)CCNC(=O)Cc1nn(CC)c(=O)c2ccccc12 | . | . | . | . | . | . | .
COCC(=O)N1[C@H](C#N)[C@@H](c2ccccc2-c2cccc(F)c2)[C@@H]1CO | / | / | . | / | / | / | /
COc1ccc(NC(=O)c2noc(C(C)C)c2[N+](=O)[O-])cc1 | . | . | . | . | 528 | . | .
O=C(Nc1cccnc1Cl)c1cccc(F)c1 | / | / | / | / | / | . | /
Cc1cccc(C(=O)Nc2cccnc2Cl)c1 | . | . | . | . | 146 | . | .
CC(C)n1cc(C(=O)c2ccccc2O)cc(C#N)c1=O | . | . | . | . | 230 | . | .
CC(=O)N1CSCC1C(=O)NNS(=O)(=O)c1ccccc1 (stereo unspecified) | / | . | . | / | 124 | . | .
Cc1ccc(N2CC(C(=O)Nc3nnc(SCC(N)=O)s3)CC2=O)cc1 (stereo unspecified) | . | . | / | . | 164 | . | .
CC(C)C[C@@H](CN)NC(=O)c1nc[nH]c1C(=O)N[C@@H](Cc1ccccc1)C(=O)CNC[C@H](C)NC(=O)c1nc[nH]c1C(=O)N[C@@H](CC(=O)O)C(=O)O | . | . | . | . | . | . | /
CC(C)C[C@@H](CN)NC(=O)c1nc[nH]c1C(=O)N[C@@H](Cc1c[nH]c2ccccc12)C(=O)CNC[C@H](C)NC(=O)c1nc[nH]c1C(=O)N[C@@H](CC(=O)O)C(=O)O | . | . | / | . | 180 | . | .
COc1cc(C)ccc1OCC(=O)OCC(=O)c1cc(C)n(CC2CCCO2)c1C (stereo unspecified) | . | / | / | . | . | . | /
SMILES | MITF act | miR-122 sensor | PGC1a acetyl inh | MITF TRPM1 inh | Yeast UUG start-1 | Wnt act | Yeast UUG start-2
COc1cc(C(=O)OCC(=O)c2cc(C)n(CC3CCCO3)c2C)cc(OC)c1C (stereo unspecified) | . | / | / | . | 107 | . | .
Cc1ccc(-c2nc3ccc(C)cn3c2Cc2ccsc2)cc1 | / | . | . | / | . | . | /
Cc1ccc2nc(C(C)(C)C)c(Cc3ccsc3)n2c1 | / | . | . | / | 153 | . | .
O=C(N[C@H]1CC[C@@H](CCNC(=O)C2CC2)O[C@H]1CO)c1ccccn1 | / | / | . | / | . | / | /
O=C(C[C@H]1CC[C@H]2[C@@H](COC[C@H](O)CN2S(=O)(=O)c2ccc(F)cc2)O1)N[C@@H]1CCN(Cc2ccccc2)C1 | / | . | . | / | . | / | /
CCCN(CC(=O)Nc1ccccc1C)C(=O)/C=C/c1cccs1 | . | . | / | . | active | . | .
CCCN(CC(=O)Nc1ccccc1C)C(=O)Cc1cccs1 | . | . | . | . | . | . | /
CC(C)N(CCc1ccncc1)C(=S)Nc1ccc(F)c(Cl)c1 | . | . | . | . | 263 | . | .
COc1ccc(NC(=S)N(CCc2ccncc2)C(C)C)cc1Cl | / | . | . | / | . | . | /
COCC(=O)N1CCN(c2ccc([N+](=O)[O-])cc2)CC1 | / | . | . | . | 671 | / | .
Cn1c(C(=O)O)c(C=O)c2ccccc21 | . | . | / | . | . | . | /
Cc1c(C(=O)C(C)C)n(C)c2ccccc12 | / | . | . | . | 435 | / | .
C[C@@H]1CN([C@@H](C)CO)C(=O)CCCn2cc(nn2)CO[C@H]1CN(C)CC1CCCC1 | / | . | . | / | . | / | /
Cc1noc(C)c1S(=O)(=O)Nc1ccc2c(c1)C(=O)N([C@@H](C)CO)C[C@@H](C)[C@@H](CN(C)CC1CCCCC1)OCCCC[C@H](C)O2 | / | . | / | / | . | / | /
CC(C)CC#Cc1ccc([C@H]2[C@@H](CO)N3CCCCN(S(=O)(=O)c4ccc(F)cc4)C[C@H]23)cc1 | / | . | . | / | 81 | / | .
CN(C)CC#Cc1ccc([C@@H]2[C@H](CO)N3CCCCN(C(=O)C4CCCC4)C[C@@H]23)cc1 | / | . | . | / | . | / | /
CCC(=O)Nc1ccc2c(c1)C(=O)N(C)C[C@@H](OC)[C@@H](C)CN(C(=O)Cc1ccccn1)[C@H](C)CO2 | / | / | . | / | . | / | /
Cc1c(C(=O)CN2CCCC(C)(C)C2)c2ccccc2n1C | . | . | . | . | active | . | .
CS(=O)(=O)N1CC(=O)N2[C@@H](CO)[C@H](c3ccc(C#CC4CCCC4)cc3)[C@@H]2C1 | / | / | . | / | / | / | /
COc1nc(-c2ccccc2)ccc1-c1noc(-c2cccs2)n1 | . | / | . | . | . | / | /
COc1nc(C)ccc1-c1noc(-c2cccs2)n1 | / | . | . | . | 528 | . | .
C[C@@H]1CCCCO[C@H](CN(C)C(=O)NC2CCCCC2)[C@@H](C)CN([C@H](C)CO)C(=O)c2cc(NC(=O)Cc3ccccc3)ccc2O1 | / | . | . | / | . | / | /
CN(CC(=O)Nc1cc([N+](=O)[O-])ccc1Cl)Cc1ccc(Br)cc1 | . | . | . | . | 518 | . | .
CCCc1nc2ccc(C)cn2c1Cc1ccccc1OC | / | . | . | / | . | . | /
CCCc1nc2ccc(C)cn2c1Cc1ccccc1C(F)(F)F | / | . | . | / | 105 | . | .
CCC(=O)Nc1ccc2c(c1)C(=O)N(C)[C@@H]1CC[C@H](CC(=O)NCCc3ccccc3)O[C@H]1CO2 | / | . | . | / | . | / | /

Screening data deposited in PubChem BioAssay by Broad Institute.
